Our source for the IC50 values is ChEMBL document CHEMBL3817817, “The design strategy of selective PTP1B inhibitors over TCPTP” (Bioorg Med Chem, 2016).

The target of this experiment is T1, Tyrosine-protein phosphatase non-receptor type 1 (Homo sapiens, UniProt P18031).
T1 sequence (P18031 whole entry): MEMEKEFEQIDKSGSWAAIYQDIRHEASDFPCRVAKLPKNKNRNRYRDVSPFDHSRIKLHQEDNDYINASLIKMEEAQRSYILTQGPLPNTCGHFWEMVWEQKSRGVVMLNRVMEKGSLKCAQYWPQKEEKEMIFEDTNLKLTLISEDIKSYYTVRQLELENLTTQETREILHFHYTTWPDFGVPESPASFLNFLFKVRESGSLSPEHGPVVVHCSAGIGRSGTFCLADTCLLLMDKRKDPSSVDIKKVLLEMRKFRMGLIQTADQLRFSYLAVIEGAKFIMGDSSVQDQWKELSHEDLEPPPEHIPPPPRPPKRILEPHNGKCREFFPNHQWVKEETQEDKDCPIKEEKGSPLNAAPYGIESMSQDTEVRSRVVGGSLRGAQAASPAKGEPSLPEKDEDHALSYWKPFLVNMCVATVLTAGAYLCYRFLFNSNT
Nature of the experiment: Inhibition of human PTP1B (1 to 288 residues) expressed in Escherichia coli BL21 (DE3) cells using p-nitrophenyl phosphate as substrate monitered every 30 secs for 15 mins by micro plate reader method.

The term IC50 denotes the concentration that gives 50% inhibition. Low values mean higher potency, high ones lower potency.

`CC(=O)N[C@H](Cc1ccc(N(C(=O)C(=O)O)c2ccccc2C(=O)O)c2ccccc12)C(=O)NCCCCCOc1cc2ccccc2cc1C(=O)O` had an IC50 of 22 nM.
